# Patent US8232270B2, “Bivalent (−)-meptazinol compounds and/or their salts, and their preparation and futilization” (priority 2006, dated 2012)
# By UniProt entry, the sequences of proteins in these tests, tags left out. Residues count along the entry.
# UniProt P22303, 32-614: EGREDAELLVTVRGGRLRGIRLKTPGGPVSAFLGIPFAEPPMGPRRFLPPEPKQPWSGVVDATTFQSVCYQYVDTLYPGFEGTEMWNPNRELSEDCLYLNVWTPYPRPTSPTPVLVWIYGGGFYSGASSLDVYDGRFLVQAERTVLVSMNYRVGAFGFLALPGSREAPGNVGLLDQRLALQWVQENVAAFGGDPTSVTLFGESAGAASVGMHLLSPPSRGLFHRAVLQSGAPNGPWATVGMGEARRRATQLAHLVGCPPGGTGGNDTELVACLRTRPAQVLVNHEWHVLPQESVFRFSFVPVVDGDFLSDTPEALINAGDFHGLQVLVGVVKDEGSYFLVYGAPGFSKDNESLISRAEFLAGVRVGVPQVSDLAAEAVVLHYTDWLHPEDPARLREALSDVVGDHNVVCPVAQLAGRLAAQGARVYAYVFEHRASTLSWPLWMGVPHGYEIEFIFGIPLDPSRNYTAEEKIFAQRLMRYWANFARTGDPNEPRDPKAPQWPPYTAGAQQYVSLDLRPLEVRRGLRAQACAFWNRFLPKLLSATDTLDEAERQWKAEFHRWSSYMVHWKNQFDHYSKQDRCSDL
# Target: T1, AChE-induced Aβ (1-40) aggregation (human recombinant AChE) (Homo sapiens, UniProt P22303)
# T1 construct: purchased Sigma-Aldrich
# Assay: Inhibition of AChE-induced Aβ aggregation, thioflavin T fluorescence
# Format: biochemical
# Conditions: extrapolated from inhibition curves; read-out: IC50 ± SEM, AChE-induced Aβ aggregation
# Procedure: Aliquots of 2 μL Aβ (1-40) peptide (Biosource), lyophilized from 2 mg/mL HFIP solution and dissolved in DMSO, were incubated for 48 h at room temperature in 0.215 M sodium phosphate buffer (pH 8.0) at a concentration of 230 μM. For coincubation experiments, aliquots (16 μL) of human recombinant AChE (Sigma-Aldrich) (final concentration of 2.3 μM) and AChE in the presence of 2 μL of the tested inhibitors were added. Each assay was run in duplicate. To quantify amyloid fibril formation, the thioflavin T fluorescence method was then applied.
# After incubation, the samples containing Aβ, Aβ plus AChE, or Aβ plus AChE in the presence of inhibitors were diluted with 50 mM glycine-NaOH buffer (pH 8.5) containing 1.5 μM thioflavin T (Sigma-Aldrich) to a final volume of 2.0 mL. Fluorescence was monitored with excitation at 446 nm and emission at 490 nm. The percent inhibition of the AChE-induced aggregation due to the presence of increasing concentrations of the inhibitor was calculated by the following expression: 100−(IFi/IFo×100), where IFi and IFo were the fluorescence intensities obtained for Aβ plus AChE in the presence and in the absence of inhibitor, respectively, after subtracting the fluorescence of respective blanks. Inhibition curves and linear regression parameters were obtained for each compound, and the IC50 was extrapolated.
smiles,measurement,value
"CC[N+](C)(CC)CCC[n+]1c(-c2ccccc2)c2cc(N)ccc2c2ccc(N)cc21 [Propidium iodine, reference compound]",pIC50,3.80

# pIC50: −log10 of the molar value.
